Literature values, collected in publication PMC4054929 (Bioorganic & medicinal chemistry, 2014).

Test system: PDE10A
Settings: affinity of papaverine for PDE10A; cited from earlier work

COc1ccc(Cc2nccc3cc(OC)c(OC)cc23)cc1OC [papaverine, reference compound]
IC50: 36 nM
